Some compounds may have been tested in ways that are not shown here.
Key:
Substance-P receptor = Substance-P receptor (Homo sapiens, UniProt P25103); assay: Negative logarithm causing 50% receptor occupancy against tachykinin receptor 1
[1] = biological target: Sodium-dependent serotonin transporter (Homo sapiens, UniProt P31645); assay: Negative logarithm causing 50% receptor occupancy against serotonin transporter

Sequences of proteins named here, by UniProt entry; tags and fusion partners are left off.
UniProt P25103, whole entry: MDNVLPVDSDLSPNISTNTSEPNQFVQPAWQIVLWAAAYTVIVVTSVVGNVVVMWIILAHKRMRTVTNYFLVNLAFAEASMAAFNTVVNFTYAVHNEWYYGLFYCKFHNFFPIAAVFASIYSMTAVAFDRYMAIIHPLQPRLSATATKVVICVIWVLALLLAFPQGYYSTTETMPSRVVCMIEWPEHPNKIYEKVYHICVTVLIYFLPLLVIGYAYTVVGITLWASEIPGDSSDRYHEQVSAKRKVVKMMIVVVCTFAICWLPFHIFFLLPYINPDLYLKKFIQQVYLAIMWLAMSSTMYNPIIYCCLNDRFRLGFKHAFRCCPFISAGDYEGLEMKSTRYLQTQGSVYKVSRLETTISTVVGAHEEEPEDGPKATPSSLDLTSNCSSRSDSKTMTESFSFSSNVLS
UniProt P31645, whole entry: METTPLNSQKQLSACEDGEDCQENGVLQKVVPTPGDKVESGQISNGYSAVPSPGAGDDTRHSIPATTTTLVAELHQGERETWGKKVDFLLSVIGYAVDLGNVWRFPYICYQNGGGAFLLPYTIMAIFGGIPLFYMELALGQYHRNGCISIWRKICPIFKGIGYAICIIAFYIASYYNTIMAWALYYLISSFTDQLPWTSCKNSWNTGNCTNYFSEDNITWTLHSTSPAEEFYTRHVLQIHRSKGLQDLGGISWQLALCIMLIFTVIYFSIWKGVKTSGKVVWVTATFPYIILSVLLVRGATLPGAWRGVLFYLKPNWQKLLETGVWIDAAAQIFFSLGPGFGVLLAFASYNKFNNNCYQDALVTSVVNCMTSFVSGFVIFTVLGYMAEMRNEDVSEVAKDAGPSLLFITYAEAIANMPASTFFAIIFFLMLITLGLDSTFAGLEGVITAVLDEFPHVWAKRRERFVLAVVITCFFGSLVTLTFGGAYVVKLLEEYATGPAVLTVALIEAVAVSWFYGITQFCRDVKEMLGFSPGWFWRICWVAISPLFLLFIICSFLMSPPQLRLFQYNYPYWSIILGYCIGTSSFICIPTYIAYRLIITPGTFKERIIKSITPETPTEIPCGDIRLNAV

Cc1cc(C)cc(OCC(=O)N(c2ccc(Cl)c(Cl)c2)C2CCNCC2)c1
Log Ki (Substance-P receptor): -7.6
Log Ki [1]: -7.5

From ChEMBL document CHEMBL1140446, “Designed multiple ligands. An emerging drug discovery paradigm” (J Med Chem, 2005)
